{"sequences": {"note": "The chains behind the UniProt entries cited, without tags or fusion partners.", "UniProt O75530, whole entry": "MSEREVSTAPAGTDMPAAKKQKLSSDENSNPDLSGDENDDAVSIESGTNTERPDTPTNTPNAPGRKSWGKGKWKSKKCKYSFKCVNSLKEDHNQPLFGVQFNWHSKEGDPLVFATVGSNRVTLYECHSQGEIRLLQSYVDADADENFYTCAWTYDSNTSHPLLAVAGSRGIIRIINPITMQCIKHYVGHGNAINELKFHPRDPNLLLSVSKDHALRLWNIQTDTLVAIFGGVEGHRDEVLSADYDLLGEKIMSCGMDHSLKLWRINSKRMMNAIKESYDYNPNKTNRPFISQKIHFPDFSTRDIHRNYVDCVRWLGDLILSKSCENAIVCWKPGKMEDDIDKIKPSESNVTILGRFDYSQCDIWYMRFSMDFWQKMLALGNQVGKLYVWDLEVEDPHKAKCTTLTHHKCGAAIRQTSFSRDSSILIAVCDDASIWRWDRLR", "UniProt Q15910, whole entry": "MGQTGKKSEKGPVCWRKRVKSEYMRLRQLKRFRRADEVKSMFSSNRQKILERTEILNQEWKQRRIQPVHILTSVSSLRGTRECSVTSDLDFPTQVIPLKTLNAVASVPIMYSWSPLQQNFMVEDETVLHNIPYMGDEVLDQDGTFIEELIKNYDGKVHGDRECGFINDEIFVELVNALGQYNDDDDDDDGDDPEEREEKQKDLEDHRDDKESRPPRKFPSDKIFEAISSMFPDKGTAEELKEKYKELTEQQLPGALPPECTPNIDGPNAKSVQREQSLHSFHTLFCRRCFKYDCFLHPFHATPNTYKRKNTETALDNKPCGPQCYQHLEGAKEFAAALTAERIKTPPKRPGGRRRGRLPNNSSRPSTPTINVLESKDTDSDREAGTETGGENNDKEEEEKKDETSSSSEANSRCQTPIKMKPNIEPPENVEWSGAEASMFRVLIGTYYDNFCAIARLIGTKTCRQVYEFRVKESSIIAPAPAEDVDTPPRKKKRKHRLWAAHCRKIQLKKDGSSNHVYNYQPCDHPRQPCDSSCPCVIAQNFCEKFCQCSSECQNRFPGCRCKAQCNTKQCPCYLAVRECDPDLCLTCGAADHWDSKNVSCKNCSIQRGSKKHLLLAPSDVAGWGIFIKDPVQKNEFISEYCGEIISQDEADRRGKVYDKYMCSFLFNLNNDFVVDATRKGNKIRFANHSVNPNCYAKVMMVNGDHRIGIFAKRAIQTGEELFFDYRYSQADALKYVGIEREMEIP", "UniProt P27338, whole entry": "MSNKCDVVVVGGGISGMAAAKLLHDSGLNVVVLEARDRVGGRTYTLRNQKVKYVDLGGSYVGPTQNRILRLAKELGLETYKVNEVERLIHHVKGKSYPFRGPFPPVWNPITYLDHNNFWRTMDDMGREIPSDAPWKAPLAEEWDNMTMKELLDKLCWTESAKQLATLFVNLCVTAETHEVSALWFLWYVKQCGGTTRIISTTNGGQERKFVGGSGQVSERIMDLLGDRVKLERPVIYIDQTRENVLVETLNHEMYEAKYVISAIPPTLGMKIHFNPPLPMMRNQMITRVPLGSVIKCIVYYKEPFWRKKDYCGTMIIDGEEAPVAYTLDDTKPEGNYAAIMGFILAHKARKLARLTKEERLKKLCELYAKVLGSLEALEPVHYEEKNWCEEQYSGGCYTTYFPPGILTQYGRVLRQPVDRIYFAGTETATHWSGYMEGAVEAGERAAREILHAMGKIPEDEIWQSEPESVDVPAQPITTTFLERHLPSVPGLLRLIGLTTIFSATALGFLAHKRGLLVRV"}, "source": "patent US20220175776A1", "about": "(Frequency Therapeutics, Inc., priority 2019, published 2022)", "origin": "cited, not measured here", "key": {"EZH2": {"target": "EZH2 (Homo sapiens, UniProt O75530+Q15910)", "settings": "Table 7; includes EED, SAM-competitive and SAH-hydrolase inhibitors; read-out: pKi or IC50 (converted); cited from earlier work"}, "MAO B": {"target": "MAO B (Homo sapiens, UniProt P27338)", "settings": "Table 6; marked B or second value of cell; read-out: Select MAOs A and B: MAO B; cited from earlier work"}}, "data": [{"compound": "CCN(c1cc(C#CCN2CCOCC2)cc(C(=O)NCc2c(C)cc(C)[nH]c2=O)c1C)[C@H]1CC[C@H](N(C)CCOC)CC1", "note": "[EPZ-011989]", "values": [{"measurement": "IC50", "setting": "EZH2", "value": "< 0.003", "unit": "µM"}]}, {"compound": "N[C@H]1CC[C@H](N[C@@H]2C[C@H]2c2ccccc2)CC1", "note": "[ORY-1001]", "values": [{"measurement": "IC50", "setting": "MAO B", "value": "> 100", "unit": "µM"}]}]}
